“And” between values parts separate entries of the source, which are not always exact repeats. Equal values may be shown once. This is a selection; strong and weak results do not stand in their true shares. Inconclusive results are not listed. The source made the active and inactive calls. Calls come from the whole dose curve; as a rule, active = well fitted inhibition curve with a large enough effect; inconclusive = small, poorly fitted or top-dose-only effect, or effect the other way; inactive = flat fitted curve, though single readings scatter.
These compounds were tested against Fumarate hydratase, mitochondrial (Homo sapiens) (UniProt P07954) (assay: Identification of activators of human fumarate hydratase by quantitative high-throughput screening). Conditions: FH coupled MDH/diaphorase resazurin fluorescence, 15 min; at 79.9 µM (top of the series) unless noted.
Source text: Fumarate hydratase (FH) is a metabolic enzyme that is part of the Krebs-cycle, and reversibly catalyzes the hydration of fumarate to malate. Mutations of the FH gene have been associated with fumarate hydratase deficiency (FHD), hereditary leiomyomatosis, renal cell cancer (HLRCC), and other diseases. Currently there are no high-quality small molecule probes for studying human fumarate hydratase. To address this, we developed a quantitative high throughput screening (qHTS) FH assay and screened a total of 57,037 compounds in dose-response. While no inhibitors of FH were confirmed, a series of phenyl-pyrrolo-pyrimidine-diones (12 compounds) were identified as activators of human fumarate hydratase. […] The binding of two compounds from the series to human fumarate hydratase was confirmed by microscale thermophoresis. […]
For primary high-throughput screen, 3 ul of FH solution (containing 13.33nM human fumarate hydratase, 13.33IU/ml malic dehydrogenase, 0.2mM NAD, 0.067mg/ml diaphorase and 0.067mM resazurin in the assay buffer (50 mM Tris pH 8.0, 5 mM MgCl2, 0.01% Brij 3) was dispensed into each well in a black solid bottom 1536-well assay plate (Greiner Bio-One) using a BioRAPTR FRD dispenser (Beckman Coulter, Brea, CA). A 1536-well pintool dispenser outfitted with 20 nl pins (Wako Automation, San Diego, CA) was used to transfer 20 nL of DMSO-solubilized compound (Cherrypick plates) to each 1536-well assay plate. […] Plates were immediately transferred to a ViewLux microplate imager (PerkinElmer, Waltham, MA), and any resulting resorufin fluorescence was measured (exitation/emission, 525/598 nm) at 0 and 15 minutes. […] Fluorescence from each well was normalized using enzyme-free and DMSO-treated control wells on each plate, and changes in fluorescence (delta RFU) were calculated using the difference in fluorescent signal for each well at 15 minutes versus 0 minutes.
% is set by controls: 0 for no effect and ±100 for the full control effect.
Note: the screen sought activators but most active calls are inhibition curves; nearly all actives have a fitted effect of over 45% in size.

Chains of the proteins cited; added tags and fusions are not shown.
UniProt P07954, whole entry: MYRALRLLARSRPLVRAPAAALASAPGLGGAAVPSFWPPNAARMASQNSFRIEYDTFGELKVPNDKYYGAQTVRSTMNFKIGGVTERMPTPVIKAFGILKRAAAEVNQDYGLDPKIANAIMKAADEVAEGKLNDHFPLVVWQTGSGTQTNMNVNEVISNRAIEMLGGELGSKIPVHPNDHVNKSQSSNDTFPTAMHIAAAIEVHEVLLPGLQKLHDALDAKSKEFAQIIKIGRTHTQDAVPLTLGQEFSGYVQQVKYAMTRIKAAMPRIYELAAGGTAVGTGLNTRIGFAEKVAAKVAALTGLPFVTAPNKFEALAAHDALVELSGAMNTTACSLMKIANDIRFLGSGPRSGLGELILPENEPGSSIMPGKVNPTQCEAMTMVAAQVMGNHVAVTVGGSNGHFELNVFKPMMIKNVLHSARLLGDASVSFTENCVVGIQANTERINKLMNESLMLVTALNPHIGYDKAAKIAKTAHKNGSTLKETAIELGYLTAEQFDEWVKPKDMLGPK

SMILES | activity change, negative = inhibition
CCC(=O)N(c1ccccc1)C1(COC)CCN(CCc2cccs2)CC1 | inactive: -5.07%
CCC(=O)N(c1ccccc1)C1(COC)CCN(CCn2nnn(CC)c2=O)CC1 | inactive: 0.75%
CN(CCCl)CCCl | inactive: -0.659% [at 53.3 µM] and inactive: -0.117% [at 53.3 µM]
